# Experimental data reported in PubChem BioAssay (Tox21).
# The chains behind the UniProt entries cited, without tags or fusion partners.
# UniProt P03372, whole entry, looked up: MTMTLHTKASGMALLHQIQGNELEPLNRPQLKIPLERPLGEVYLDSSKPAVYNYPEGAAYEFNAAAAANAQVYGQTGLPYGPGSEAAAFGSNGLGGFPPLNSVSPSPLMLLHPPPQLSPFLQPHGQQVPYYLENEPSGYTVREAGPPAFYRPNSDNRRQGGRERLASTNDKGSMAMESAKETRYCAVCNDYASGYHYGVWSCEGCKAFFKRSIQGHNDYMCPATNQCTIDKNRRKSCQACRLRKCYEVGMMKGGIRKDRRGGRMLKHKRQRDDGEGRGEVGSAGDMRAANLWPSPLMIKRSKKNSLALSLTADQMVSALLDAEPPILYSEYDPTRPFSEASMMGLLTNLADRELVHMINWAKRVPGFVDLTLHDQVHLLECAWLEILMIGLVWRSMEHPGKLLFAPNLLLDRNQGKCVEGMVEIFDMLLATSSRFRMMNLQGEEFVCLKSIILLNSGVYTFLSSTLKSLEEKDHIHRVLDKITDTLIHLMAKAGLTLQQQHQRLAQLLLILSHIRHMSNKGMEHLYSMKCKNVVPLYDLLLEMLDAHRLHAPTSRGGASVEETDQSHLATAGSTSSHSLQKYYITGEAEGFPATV
# UniProt Q92731, whole entry, looked up: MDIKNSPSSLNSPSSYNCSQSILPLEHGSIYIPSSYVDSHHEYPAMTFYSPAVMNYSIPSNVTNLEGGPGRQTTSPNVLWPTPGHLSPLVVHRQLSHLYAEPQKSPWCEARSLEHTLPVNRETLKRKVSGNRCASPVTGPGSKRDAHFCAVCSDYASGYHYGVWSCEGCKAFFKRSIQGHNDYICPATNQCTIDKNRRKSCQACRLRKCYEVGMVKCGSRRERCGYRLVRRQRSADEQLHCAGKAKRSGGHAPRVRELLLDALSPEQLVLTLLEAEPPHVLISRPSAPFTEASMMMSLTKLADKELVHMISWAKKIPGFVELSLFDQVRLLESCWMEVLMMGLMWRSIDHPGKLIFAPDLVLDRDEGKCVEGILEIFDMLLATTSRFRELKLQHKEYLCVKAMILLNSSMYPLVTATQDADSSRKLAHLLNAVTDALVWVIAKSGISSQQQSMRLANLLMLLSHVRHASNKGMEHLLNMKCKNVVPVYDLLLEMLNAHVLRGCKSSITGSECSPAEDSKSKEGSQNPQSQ
# Values joined by “and” are separate entries in the source; they are usually repeats but may differ in a detail not shown here. Equal values may be shown once. Only a part is listed here, and it is no random draw. Results filed as inconclusive are left out. More than one record can exist for a structure, and the calls need not agree. Active and inactive are the calls of the source. Unless noted, calls follow the shape of the dose curve; as a rule, active = well fitted curve in the direction sought with a large enough effect in the repeat runs; inconclusive = weak or mixed curves; inactive = no such curve, though single readings can be large; an effect the other way counts as inactive or inconclusive.
# What was measured:
# [1] = A CellTox Green Cytotoxicity Assay to monitor cytotoxicity in HepG2 cells - 16 hour (AID 1224876); also: nearly all actives have a fitted effect of over 45% in size; also: potency is read from the fitted curve at half-maximal effect
# Summary of the method: (§1)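 Read-out is fluorescence of a cyanine dye excluded from live cells that stains DNA of dead HepG2 cells, with signal proportional to cytotoxicity. Plates were read at 0, 8, 16, 24, 32 and 40 h after compound addition.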
# [2] = qHTS RealTime-Glo MT Cell Viability Assay in HEK293 cells - 0 hour (AID 1224880); settings: RealTime-Glo luminescence; also: top concentration of the series differs between compounds; nearly all actives have a fitted effect of over 45% in size
# Summary of the method: (§2)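 Cells were seeded together with NanoLuc luciferase and a prosubstrate that viable cells reduce to a luciferase substrate. After a 5 h incubation at 37 C/5% CO2, compounds were added and luminescence was measured repeatedly during 40 h of treatment.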
# [3] = qHTS RealTime-Glo MT Cell Viability Assay in HEK293 cells - 8 hour (AID 1224887); also: nearly all actives have a fitted effect of over 50% in size; also: potency is read from the fitted curve at half-maximal effect; as to activity change, negative = cytotoxicity: top concentration of the series differs between compounds
# Summary of the method: as §2
# [4] = qHTS RealTime-Glo MT Cell Viability Assay in HepG2 cells - 0 hour (AID 1224889); settings: RealTime-Glo luminescence; also: nearly all actives have a fitted effect of over 50% in size
# Summary of the method: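 Real-time, nonlytic viability: 600 HepG2 cells/well mixed with NanoLuc enzyme plus prosubstrate; 5 h settle, compound (DMSO) added by pintool; luminescence monitored over 40 h at 37 C.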
# [5] = qHTS assay to identify small molecule HDAC inhibitors (AID 1259364); settings: HCT-116 HDAC-Glo I/II luminescence, 2 h; also: top concentration of the series differs between compounds; nearly all actives have a fitted effect of over 45% in size
# Summary of the method: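 Luminescence from a cell-permeant luminogenic class I/II HDAC substrate reports endogenous deacetylase activity in intact HCT-116 cells treated with compounds for 2 h.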
# [6] = qHTS assay to identify small molecule agonists of the sonic hedgehog signaling (Shh) pathway (AID 1259368; calls by dose curve;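 also: NIH/3T3-derived 3T3Gli1-Luc cells carrying a stable Gli1-driven firefly luciferase reporter; nearly all actives have a fitted effect of over 15% in size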); settings: NIH/3T3 Gli1-Luc reporter, luciferase, 24 h, hits give high values
# Summary of the method: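 3T3Gli1-Luc (NIH/3T3 clone, stable Gli1-Luc); 4 hr pre-incubation, then cpd in DMSO 24 hr, 37 C/5% CO2; luciferase reagent 30 min RT; luminescence.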
# [7] = qHTS RealTime-Glo MT Cell Viability Assay in HEK293 cells - 16 hour (AID 1224872); also: top concentration of the series differs between compounds; nearly all actives have a fitted effect of over 50% in size
# Summary of the method: (§3)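 Cells + reagent dispensed (600 cells/well, HEK293) → 5 h at 37 C/5% CO2 → 23 nL compound in DMSO pinned → 40 h at 37 C → luminescence read at 0, 8, 16, 24, 32, 40 h.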
# [8] = qHTS RealTime-Glo MT Cell Viability Assay in HepG2 cells - 8 hour (AID 1224873); also: nearly all actives have a fitted effect of over 55% in size
# Summary of the method: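 HepG2 cells mixed with RealTime-Glo MT reagents (NanoLuc plus cell-permeant prosubstrate) were seeded at 600 cells/well, incubated 5 h at 37 C/5% CO2, then pinned with compounds in DMSO; nonlytic luminescence tracked viability during 40 h treatment.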
# [9] = A CellTox Green Cytotoxicity Assay to monitor cytotoxicity in HepG2 cells - 24 hour (AID 1224878); also: nearly all actives have a fitted effect of over 45% in size
# Summary of the method: as §1
# [10] = A CellTox Green Cytotoxicity Assay to monitor cytotoxicity in HepG2 cells - 40 hour (AID 1224879); also: nearly all actives have a fitted effect of over 40% in size
# Summary of the method: as §1
# [11] = qHTS RealTime-Glo MT Cell Viability Assay in HEK293 cells - 24 hour (AID 1224886); also: nearly all actives have a fitted effect of over 50% in size; also: potency is read from the fitted curve at half-maximal effect; as to activity change, negative = cytotoxicity: top concentration of the series differs between compounds
# Summary of the method: as §3
# [12] = qHTS assay to identify small molecule antagonists of the estrogen receptor alpha (ER-alpha) signaling pathway using the BG1 cell line in the presence of 0.1 nM 17-beta-estradiol - cell viability counter screen (AID 1259241); also: nearly all actives have a fitted effect of over 40% in size
# Summary of the method: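 Cytotoxicity counter-screen: live-cell protease activity measured by fluorescence (30 min reagent step) in the same wells. Cells were VM7Luc4E2 with endogenous ER-alpha and ERE-driven luciferase, treated 22 hr at 37C alongside 0.1 nM 17beta-estradiol final.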
# [13] = qHTS assay to identify small molecule antagonists of the androgen receptor (AR) signaling pathway using the MDA cell line in the presence of 0.5 nM R1881 - cell viability counter screen (AID 1259242); also: nearly all actives have a fitted effect of over 45% in size
# Summary of the method: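 Counter screen for cytotoxicity run in the same wells as the AR antagonist reporter screen: MDA-kb2 cells were treated 16 hr with test compounds and 0.5 nM R1881, then live-cell protease activity was measured by fluorescence.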
# [14] = biological target: Estrogen receptor (Homo sapiens) (UniProt P03372); experiment: qHTS assay to identify small molecule antagonists of the estrogen receptor alpha (ER-alpha) signaling pathway using the BG1 cell line in the presence of 0.1 nM 17-beta-estradiol (AID 1259244); settings: VM7Luc4E2 (BG1) ERE-luciferase, antagonist mode, 0.1 nM E2, 22 h; at 92.4 µM (top of the series) unless noted; also: nearly all actives have a fitted effect of over 50% in size
# [15] = qHTS assay to identify small molecule HDAC inhibitors - cell viability counter screen (AID 1259365); settings: HCT-116 viability, CellTiter-Glo ATP luminescence, 2 h; also: nearly all actives have a fitted effect of over 50% in size
# Summary of the method: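 CellTiter-Glo luminescence (30 min, room temperature) reported viability after a 2 h compound exposure at 37 C. Cells: wild-type HCT-116, 1,500 per well, seeded the night before.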
# [16] = qHTS assay to identify small molecule agonists of the sonic hedgehog signaling (Shh) pathway - cell viability counter screen (AID 1259366); also: nearly all actives have a fitted effect of over 50% in size
# Summary of the method: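 Cytotoxicity counter screen: CellTiter-Fluor reagent added after 23 h compound exposure, then 1 h at 37C and fluorescence read. Cells were 3T3 Gli1-Luc, seeded 2,000 per well and dosed 4 h post-plating.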
# [17] = qHTS assay to identify small molecule antagonists of the sonic hedgehog signaling (Shh) pathway (AID 1259369; calls by dose curve; also: nearly all actives have a fitted effect of over 45% in size)
# Summary of the method: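 3T3Gli1-Luc, conditioned-medium-stimulated, 24hr cpd, 37C/5% CO2; Gli1-driven firefly Luc luminescence after 30min RT with luciferase reagent. Cells plated 4hr before cpd.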
# [18] = biological target: Estrogen receptor beta (Homo sapiens) (UniProt Q92731); experiment: qHTS assay to identify small molecule agonists of the estrogen receptor beta (ER-beta) signaling pathway (AID 1259377; active = well fitted activation curve with a large enough effect in the signal ratio in the repeat runs, not every such curve was filed as active; the % refers to the signal ratio); settings: ER-beta-UAS-bla HEK293T, beta-lactamase FRET ratio, 16 h; at 92.4 µM (top of the series) unless noted
# [19] = qHTS RealTime-Glo MT Cell Viability Assay in HEK293 cells - 40 hour (AID 1224874); settings: RealTime-Glo luminescence; max response: hits give low values; also: nearly all actives have a fitted effect of over 50% in size; also: potency is read from the fitted curve at half-maximal effect
# Summary of the method: as §2
# [20] = at 76.8 µM (top of the series) unless noted
# [21] = at 92.4 µM (top of the series) unless noted
# % is scaled to controls: 0 for no effect and ±100 for the full control effect.
smiles,measurement,setting,value
O=C1C2CC=CCC2C(=O)N1SC(Cl)(Cl)C(Cl)Cl (centres undefined),Potency,[1],active: 44 µM and active: 7.76 µM
same,"activity change, negative = cytotoxicity",[2]; [20],inactive: -18.9% and inactive: -7.05%
same,Potency,[3],active: 22 µM and active: 9.77 µM
same,"activity change, negative = cytotoxicity",[4]; [20],inactive: -26.1% and inactive: -27.3%
same,"activity change, negative = inhibition",[5]; [21],inactive: -1.84% and inactive: 0.505%
same,activity change,[6]; [21],inactive: -8.55% and inactive: -13.4%
O=P(Cl)(Oc1ccccc1)Oc1ccccc1,Potency,[7],inactive
same,Potency,[8],inactive
same,Potency,[1],inactive
same,Potency,[9],inactive
same,Potency,[10],inactive
same,"activity change, negative = cytotoxicity",[2]; [20],inactive: -4.04%
same,Potency,[11],inactive
same,Potency,[3],inactive
same,"activity change, negative = cytotoxicity",[4]; [20],inactive: 0.865%
same,Potency,[12],inactive
same,Potency,[13],inactive
same,"activity change, negative = inhibition",[14],inactive: -15.7%
same,"activity change, negative = inhibition",[5]; [21],inactive: 7.22%
same,"activity change, negative = cytotoxicity",[15]; [21],inactive: 3.46%
same,Potency,[16],inactive
same,activity change,[6]; [21],inactive: 0.332%
same,Potency,[17],inactive
same,activation,[18],inactive: -0.229%
Cc1cc([N+](=O)[O-])cc([N+](=O)[O-])c1O,Potency,[8],inactive
same,Potency,[1],inactive
same,Potency,[9],inactive
same,"activity change, negative = cytotoxicity",[2]; [20],inactive: -1.45% and inactive: -3.95%
same,Potency,[3],inactive
same,"activity change, negative = cytotoxicity",[4]; [20],inactive: -3.66% and inactive: -9.51%
same,"activity change, negative = cytotoxicity",[15]; [21],inactive: 0.655% and inactive: -7.73%
same,activity change,[6]; [21],inactive: -6.17% and inactive: -5.45%
O=[N+]([O-])c1ccc(S(=O)(=O)O)c([N+](=O)[O-])c1,Potency,[7],inactive
same,Potency,[8],inactive
same,max response,[19],inactive: 7.22%
same,Potency,[1],inactive
same,Potency,[9],inactive
same,Potency,[10],inactive
same,"activity change, negative = cytotoxicity",[2]; [20],inactive: 18.5%
same,Potency,[11],inactive
same,Potency,[3],inactive
same,"activity change, negative = cytotoxicity",[4]; [20],inactive: 0.852%
same,Potency,[12],inactive
same,Potency,[13],inactive
same,"activity change, negative = inhibition",[5]; [21],inactive: -2.5%
same,"activity change, negative = cytotoxicity",[15]; [21],inactive: 6.47%
same,activity change,[6]; [21],inactive: -2.17%
same,Potency,[17],inactive
CC(C)OP(=S)(OC(C)C)SCCNS(=O)(=O)c1ccccc1,Potency,[8],inactive
same,Potency,[1],inactive
same,Potency,[9],inactive
same,Potency,[10],inactive
same,"activity change, negative = cytotoxicity",[2]; [20],inactive: -1.63%
same,Potency,[13],inactive
same,"activity change, negative = inhibition",[5]; [21],inactive: 1.95%
same,"activity change, negative = cytotoxicity",[15]; [21],inactive: 0.521%
same,Potency,[16],inactive
same,activity change,[6]; [21],inactive: -3.37%
same,activation,[18],inactive: -4.32%
ClP(Cl)c1ccccc1,Potency,[7],inactive
same,Potency,[8],inactive
same,max response,[19],inactive: 1.55%
same,Potency,[1],inactive
same,Potency,[9],inactive
same,Potency,[10],inactive
same,"activity change, negative = cytotoxicity",[2]; [20],inactive: 6.52%
same,Potency,[11],inactive
same,Potency,[3],inactive
same,"activity change, negative = cytotoxicity",[4]; [20],inactive: 0.429%
same,Potency,[12],inactive
same,Potency,[13],inactive
same,"activity change, negative = inhibition",[14],inactive: 0.0296%
same,"activity change, negative = inhibition",[5]; [21],inactive: -0.536%
same,"activity change, negative = cytotoxicity",[15]; [21],inactive: 2.01%
same,Potency,[16],inactive
same,activity change,[6]; [21],inactive: -1.16%
same,activation,[18],inactive: 3.19%
CCOC(=O)Cl,Potency,[7],inactive
same,Potency,[8],inactive
same,max response,[19],inactive: 14.1%
same,Potency,[1],inactive
same,Potency,[9],inactive
same,"activity change, negative = cytotoxicity",[2]; [20],inactive: -0.614%
same,Potency,[11],inactive
same,Potency,[3],inactive
same,"activity change, negative = cytotoxicity",[4]; [20],inactive: -3.11%
same,Potency,[12],inactive
same,Potency,[13],inactive
same,"activity change, negative = inhibition",[14],inactive: 27.3%
same,"activity change, negative = inhibition",[5]; [21],inactive: 3.58%
same,"activity change, negative = cytotoxicity",[15]; [21],inactive: -15.1%
same,Potency,[16],inactive
same,activity change,[6]; [21],inactive: 2.83%
same,Potency,[17],inactive
same,activation,[18],inactive: -2.53%
CCCCCCCCCCCCCC[P+](CCCCCC)(CCCCCC)CCCCCC,Potency,[19],active: 3.88 µM
same,"activity change, negative = cytotoxicity",[2]; [20],inactive: -3.55%
same,Potency,[11],active: 6.9 µM
same,"activity change, negative = cytotoxicity",[4]; [20],inactive: -13.3%
same,"activity change, negative = inhibition",[5]; [21],inactive: 4.66%
same,"activity change, negative = cytotoxicity",[15]; [21],inactive: -11%
same,activity change,[6]; [21],inactive: -19.9%
NC(=O)Nc1ccc([As](=O)(O)O)cc1,Potency,[7],inactive
same,Potency,[8],inactive
same,max response,[19],inactive: 5.29% and inactive: -0.318%
same,Potency,[1],inactive
same,Potency,[9],inactive
same,Potency,[10],inactive
same,"activity change, negative = cytotoxicity",[2]; at 35.3 µM (top of the series),inactive: -3.42%
same,"activity change, negative = cytotoxicity",[2]; at 76.8 µM (top of the series),inactive: 4.29%
same,Potency,[11],inactive
same,Potency,[3],inactive
same,"activity change, negative = cytotoxicity",[4]; at 35.3 µM (top of the series),inactive: -1.93%
same,"activity change, negative = cytotoxicity",[4]; at 76.8 µM (top of the series),inactive: -1.53%
same,Potency,[12],inactive
same,Potency,[13],inactive
same,"activity change, negative = inhibition",[5]; at 42.5 µM (top of the series),inactive: 0.633%
same,"activity change, negative = inhibition",[5]; at 92.4 µM (top of the series),inactive: 6.3%
same,"activity change, negative = cytotoxicity",[15]; at 42.5 µM (top of the series),inactive: -2.38%
same,"activity change, negative = cytotoxicity",[15]; at 92.4 µM (top of the series),inactive: 0.827%
same,activity change,[6]; at 42.5 µM (top of the series),inactive: 1.72%
same,activity change,[6]; at 92.4 µM (top of the series),inactive: 0.192%
same,Potency,[17],inactive
same,activation,[18],inactive: 4.86% [at 42.5 µM]
